{"sequences": {"note": "Amino acid sequences for entries named in this document (tags omitted).", "UniProt P08908, whole entry": "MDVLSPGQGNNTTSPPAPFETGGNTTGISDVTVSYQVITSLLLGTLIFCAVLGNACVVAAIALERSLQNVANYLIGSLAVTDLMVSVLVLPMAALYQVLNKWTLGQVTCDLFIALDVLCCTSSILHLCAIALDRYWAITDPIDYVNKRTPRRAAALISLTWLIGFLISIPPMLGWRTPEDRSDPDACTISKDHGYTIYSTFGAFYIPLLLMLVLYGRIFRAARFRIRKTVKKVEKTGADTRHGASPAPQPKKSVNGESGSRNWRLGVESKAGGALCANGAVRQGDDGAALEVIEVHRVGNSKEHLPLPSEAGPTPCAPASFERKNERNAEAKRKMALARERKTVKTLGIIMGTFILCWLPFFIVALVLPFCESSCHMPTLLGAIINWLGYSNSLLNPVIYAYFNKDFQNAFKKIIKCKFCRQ"}, "source": "ChEMBL document CHEMBL1145061", "about": "“New potential uroselective NO-donor alpha1-antagonists” (J Med Chem, 2003)", "key": {"[1]": {"molecular_target": "5-hydroxytryptamine receptor 1A (Homo sapiens, UniProt P08908)", "test": "Inhibition of [3H]8-OH-DPAT binding to 5-hydroxytryptamine 1A receptor serotonergic receptor in human HeLa cells", "format": "cell-based", "method_in_brief": "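Membranes from HeLa cells expressing the cloned human 5-HT1A receptor, [3H]-8-OH-DPAT competition binding. Ki from two to three triplicate experiments, agreeing within 20%.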"}, "[2]": {"molecular_target": "T1, Alpha-1A adrenergic receptor (Homo sapiens, UniProt P35348)", "T1 sequence (P35348 whole entry)": "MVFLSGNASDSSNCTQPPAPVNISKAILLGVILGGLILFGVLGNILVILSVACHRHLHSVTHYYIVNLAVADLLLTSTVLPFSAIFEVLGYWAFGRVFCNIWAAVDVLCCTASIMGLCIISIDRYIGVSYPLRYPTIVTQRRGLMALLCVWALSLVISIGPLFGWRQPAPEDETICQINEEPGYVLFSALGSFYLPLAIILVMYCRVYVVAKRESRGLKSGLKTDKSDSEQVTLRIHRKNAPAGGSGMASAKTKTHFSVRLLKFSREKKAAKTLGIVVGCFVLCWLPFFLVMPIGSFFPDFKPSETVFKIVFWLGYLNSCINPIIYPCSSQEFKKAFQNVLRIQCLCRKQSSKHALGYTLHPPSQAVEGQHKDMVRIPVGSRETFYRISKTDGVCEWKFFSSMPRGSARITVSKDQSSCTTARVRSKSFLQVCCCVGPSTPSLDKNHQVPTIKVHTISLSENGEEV", "test": "Inhibition of [3H]prazosin binding to cloned human Alpha-1A adrenergic receptor in CHO cells (chinese hamster ovary cells)", "format": "cell-based", "method_in_brief": "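Membranes from CHO cells expressing cloned human α1a, α1b or α1d subtypes, [3H]prazosin competition binding. Ki from two to three experiments, each in triplicate, agreeing within 20%.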"}}, "data": [{"smiles": "COc1ccccc1N1CCN(CCCNC(=O)c2cccc3c(=O)c(C)c(-c4ccccc4)oc23)CC1", "note": "[UPIDOSIN]", "values": [{"measurement": "Ki", "setting": "[1]", "value": 5.9, "unit": "nM"}, {"measurement": "Ki", "setting": "[2]", "value": 0.34, "unit": "nM"}]}]}
